Here are results for one substance from patent US12187997B2, “Integrated human organ-on-chip microphysiological systems” (President and Fellows of Harvard College, priority 2011, dated 2025).

One data set concerns human lung-on-a-Chip. Description: human lung-on-a-Chip, vascular leakage (IL-2 toxicity). Type of data set: cell-based. An excerpt:
Using the lung-Chips, various kinds of drugs can be tested to determine what would be the effective treatment.

The conditions of data set [1]: cited from earlier work.

IL-2: chemotherapeutic cytokine IL-2: the blood clot formation entry in the data set on human lung-on-a-Chip (10% cyclic strain) is listed as “accompanied by blood clot formation”. The “increase of the vascular leakage response with physiological breathing motions” value in the data set on human lung-on-a-Chip (10% cyclic strain, versus static conditions) is recorded as “more than 3 fold”. In addition, the “increase in pulmonary vascular leakage into the air channel of the lung Chip” value in the data set on human lung-on-a-Chip (static conditions, fluorescent-insulin as marker of vascular permeability) is “small but significant increase”. Moreover, the “toxicity in humans / in vivo” value in data set [1] was “dose-limiting toxicity due to vascular leakage leading to pulmonary edema in humans”.
